Data published in PMC2651628.

Molecular target: YFP-hMena (human Mena fused to monomeric Venus) (human) (UniProt Q8N8S7)
Test: FRET or BRET; u-adFRET (acceptor-depletion FRET with linear spectral unmixing) in U251MG cells co-transfected with YFP (Venus) acceptor and CFP donor fusions, fixed in 4% paraformaldehyde; FRET efficiency by region of the cell (cytosol, peripheral, focal adhesion)

FRET efficiency (cytosol): 16
FRET efficiency (peripheral): 21
Substance: CFP-wtRac1 (wild type Rac1) (from UniProt P63000 1-192) (natural protein)
